Here are results for 13 compounds from PMC9596378, “Discovery and molecular basis of subtype-selective cyclophilin inhibitors” (Nature Chemical Biology, 2022).

Amino acid sequences for entries named in this document (tags omitted). Residues count along the entry.
UniProt O43447, whole entry: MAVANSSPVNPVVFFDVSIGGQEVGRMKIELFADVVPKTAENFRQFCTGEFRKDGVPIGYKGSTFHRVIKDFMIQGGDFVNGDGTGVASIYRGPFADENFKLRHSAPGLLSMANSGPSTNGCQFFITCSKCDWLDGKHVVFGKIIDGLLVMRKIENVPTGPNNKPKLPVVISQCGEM
UniProt P30405, 45-207 limits assumed: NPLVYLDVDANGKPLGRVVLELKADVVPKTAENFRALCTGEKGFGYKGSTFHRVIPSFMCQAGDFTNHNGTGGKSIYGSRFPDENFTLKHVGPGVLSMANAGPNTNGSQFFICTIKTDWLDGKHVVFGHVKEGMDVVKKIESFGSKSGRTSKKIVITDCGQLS
UniProt Q13427, 1-179 limits assumed: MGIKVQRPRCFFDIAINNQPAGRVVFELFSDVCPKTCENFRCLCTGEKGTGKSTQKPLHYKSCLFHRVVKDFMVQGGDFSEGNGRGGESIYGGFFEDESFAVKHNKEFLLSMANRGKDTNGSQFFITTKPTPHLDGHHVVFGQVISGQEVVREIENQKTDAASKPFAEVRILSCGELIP
UniProt P45877, 24-212 limits assumed: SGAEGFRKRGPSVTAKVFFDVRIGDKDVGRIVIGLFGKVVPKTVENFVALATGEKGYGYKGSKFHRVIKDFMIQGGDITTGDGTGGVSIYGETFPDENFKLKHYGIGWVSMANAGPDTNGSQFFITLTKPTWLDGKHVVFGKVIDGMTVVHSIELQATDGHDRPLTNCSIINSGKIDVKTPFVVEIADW
UniProt Q9UNP9, 131-301 limits assumed: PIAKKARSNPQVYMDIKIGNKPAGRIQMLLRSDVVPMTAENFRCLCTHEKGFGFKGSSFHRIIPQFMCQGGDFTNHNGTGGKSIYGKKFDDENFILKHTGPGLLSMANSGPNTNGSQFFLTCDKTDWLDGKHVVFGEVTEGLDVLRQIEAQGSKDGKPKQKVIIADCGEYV
UniProt P62937, whole entry: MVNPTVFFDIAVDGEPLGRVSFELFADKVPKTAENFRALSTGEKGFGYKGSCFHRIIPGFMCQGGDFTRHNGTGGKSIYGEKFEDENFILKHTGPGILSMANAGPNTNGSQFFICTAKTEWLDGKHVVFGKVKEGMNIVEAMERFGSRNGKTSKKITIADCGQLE
UniProt Q08752, 1-183 limits assumed: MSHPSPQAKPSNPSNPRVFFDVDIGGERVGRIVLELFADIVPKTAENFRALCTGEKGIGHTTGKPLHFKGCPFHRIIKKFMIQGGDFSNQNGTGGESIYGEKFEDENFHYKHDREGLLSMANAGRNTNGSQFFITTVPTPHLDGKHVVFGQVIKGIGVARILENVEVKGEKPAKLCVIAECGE
UniProt Q96BP3, 473-646 limits assumed: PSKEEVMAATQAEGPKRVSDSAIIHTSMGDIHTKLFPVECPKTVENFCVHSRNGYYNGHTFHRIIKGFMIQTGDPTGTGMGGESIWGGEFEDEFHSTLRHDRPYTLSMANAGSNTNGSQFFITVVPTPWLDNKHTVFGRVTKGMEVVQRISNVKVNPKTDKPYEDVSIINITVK
UniProt P23284, 34-216 limits assumed: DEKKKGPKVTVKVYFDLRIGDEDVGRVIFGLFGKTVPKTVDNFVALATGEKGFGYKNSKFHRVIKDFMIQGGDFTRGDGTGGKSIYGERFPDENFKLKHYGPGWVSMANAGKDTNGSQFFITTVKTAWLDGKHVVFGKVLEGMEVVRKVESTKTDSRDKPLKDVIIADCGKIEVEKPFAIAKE
UniProt P30414, 7-179 limits assumed: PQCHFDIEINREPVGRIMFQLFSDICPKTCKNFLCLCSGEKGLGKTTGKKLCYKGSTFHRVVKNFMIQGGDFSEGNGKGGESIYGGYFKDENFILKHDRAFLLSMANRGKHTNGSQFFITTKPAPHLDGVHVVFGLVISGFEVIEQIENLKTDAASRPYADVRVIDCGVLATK
UniProt Q9Y3C6, whole entry: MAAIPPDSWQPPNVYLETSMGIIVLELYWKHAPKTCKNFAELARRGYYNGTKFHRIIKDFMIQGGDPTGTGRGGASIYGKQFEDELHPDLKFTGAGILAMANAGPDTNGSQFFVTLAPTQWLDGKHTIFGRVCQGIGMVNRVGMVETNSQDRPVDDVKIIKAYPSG

One may read the IC50 as the point on the concentration scale where inhibition reaches its midpoint.

Read-outs that look alike come from different tables or passages of the source.

The target of one series is CypH (Homo sapiens, UniProt O43447). Nature of the series: Chymotrypsin coupled prolyl-isomerase assay. The format is biochemical.
The next series deals with CypD (Homo sapiens, UniProt P30405). The series can be described thus: Chymotrypsin coupled prolyl-isomerase assay. Format: biochemical. The following applies: read-out: Wild-Type Cyclophilin Prolyl Isomerase Inhibition IC50 Values, CypD; wild-type CypD.
The next series addresses CypG (Homo sapiens, UniProt Q13427). Nature of the series: Chymotrypsin coupled prolyl-isomerase assay. The format is biochemical.
For another series, the target named is CypC (Homo sapiens, UniProt P45877). The series can be described thus: Chymotrypsin coupled prolyl-isomerase assay. Format: biochemical.
The target in a further series is CypE (Homo sapiens, UniProt Q9UNP9). Nature of the series: Chymotrypsin coupled prolyl-isomerase assay. Format: biochemical. The following applies: read-out: Wild-Type Cyclophilin Prolyl Isomerase Inhibition IC50 Values, CypE; wild-type CypE.
In a further series the target is CypA (Homo sapiens, UniProt P62937). Nature of the series: Chymotrypsin coupled prolyl-isomerase assay. The following applies: read-out: Wild-Type Cyclophilin Prolyl Isomerase Inhibition IC50 Values, CypA; wild-type CypA. The format is biochemical.
The target in a further series is Cyp40 (Homo sapiens, UniProt Q08752). The series can be described thus: Chymotrypsin coupled prolyl-isomerase assay. The format is biochemical.
Another series concerns the target PPWD1 (Homo sapiens, UniProt Q96BP3). Nature of the series: Chymotrypsin coupled prolyl-isomerase assay. Format: biochemical.
The target in another series is CypB (Homo sapiens, UniProt P23284). The following applies: read-out: Wild-Type Cyclophilin Prolyl Isomerase Inhibition IC50 Values, CypB; wild-type CypB.
A further series addresses NKTR (Homo sapiens, UniProt P30414). The series can be described thus: Chymotrypsin coupled prolyl-isomerase assay. Format: biochemical.
In a further series the target is PPIL1 (Homo sapiens, UniProt Q9Y3C6). The series can be described thus: Chymotrypsin coupled prolyl-isomerase assay. The format is biochemical.
Setting [1] is: read-out: Wild-Type Cyclophilin Prolyl Isomerase Inhibition IC50 Values, CypH, wild-type CypH.
Setting [2] is: read-out: Wild-Type Cyclophilin Prolyl Isomerase Inhibition IC50 Values, CypG, wild-type CypG.
Where [3] appears, read: read-out: Wild-Type Cyclophilin Prolyl Isomerase Inhibition IC50 Values, CypC, wild-type CypC.
[4] abbreviates: read-out: Wild-Type Cyclophilin Prolyl Isomerase Inhibition IC50 Values, Cyp40, wild-type Cyp40.
[5] abbreviates: read-out: Wild-Type Cyclophilin Prolyl Isomerase Inhibition IC50 Values, PPWD1, wild-type PPWD1.
[6] abbreviates: read-out: Wild-Type Cyclophilin Prolyl Isomerase Inhibition IC50 Values, NKTR, wild-type NKTR.
[7] abbreviates: read-out: Wild-Type Cyclophilin Prolyl Isomerase Inhibition IC50 Values, PPIL1, wild-type PPIL1.
The mark [8] stands for this setting: read-out: IC50 CypC, prolyl-isomerase inhibition, 5 nM cyclophilin.

Regarding `NCCOCCNC(=O)[C@@H]1CCNC(=O)/C=C/C(=O)N2CCC[C@](Cc3ccccc3)(C2)C(=O)N[C@@H](Cc2ccc(-c3cccc(O)c3)cc2)C(=O)NCc2ccccc2CC(=O)N1`, the IC50 is above 50000 nM at CypH (setting [1]); 300 nM at CypD; above 50000 nM on CypG (setting [2]); 900 nM on CypC (setting [3]); 700 nM at CypE; 500 nM at CypA. For the same compound, the IC50 on Cyp40 (setting [4]) was 230 nM; at PPWD1 (setting [5]), 10000 nM; on CypB, 150 nM; at NKTR (setting [6]) it was above 50000 nM; on PPIL1 (setting [7]) it was 1900 nM.

Turning to `NC(=O)[C@H]1CCNC(=O)/C=C/C(=O)N2CCC[C@@](Cc3ccccc3)(C2)C(=O)N[C@H](Cc2ccc(-c3ccc(C(CC(=O)O)CC(=O)O)cc3)cc2)C(=O)NCc2ccccc2CC(=O)N1`, the IC50 on CypH (setting [1]), at CypD, at CypG (setting [2]), on CypC (setting [3]), on CypE and at CypA was above 50000 nM each time. Further, the IC50 against Cyp40, on PPWD1 (setting [5]), at CypB, at NKTR (setting [6]) and on PPIL1 (setting [7]) was above 50000 nM throughout.

For the compound `Cc1ccccc1-c1ccc(C[C@@H]2NC(=O)[C@]3(Cc4ccccc4)CCCN(C3)C(=O)/C=C/C(=O)NCC[C@@H](C(=O)NCCOCCN)NC(=O)Cc3ccccc3CNC2=O)cc1`, the IC50 at CypH (setting [1]) was above 100000 nM; on CypD, 380 nM; on CypG (setting [2]) it was above 50000 nM; at CypC (setting [3]) it was 460 nM; on CypE, 3000 nM; at CypA, 1200 nM. The IC50 on Cyp40 (setting [4]) was 400 nM; at PPWD1 (setting [5]) it was above 50000 nM; at CypB, 300 nM; at NKTR (setting [6]) it was above 50000 nM; on PPIL1 (setting [7]) it was 2400 nM.

Consider `COC(=O)c1ccc(-c2ccc(C[C@@H]3NC(=O)[C@]4(Cc5ccccc5)CCCN(C4)C(=O)/C=C/C(=O)NCC[C@@H](C(=O)NCCOCCN)NC(=O)Cc4ccccc4CNC3=O)cc2)cc1`, for which the concentration for half-maximal inhibition (IC50) was 40000 nM at CypH (setting [1]); 80 nM on CypD; 6000 nM on CypG (setting [2]); 700 nM on CypC (setting [3]); 230 nM at CypE; 500 nM at CypA. Also, the concentration for half-maximal inhibition (IC50) was determined as 130 nM on Cyp40 (setting [4]); 800 nM on PPWD1 (setting [5]); 120 nM at CypB; 21000 nM on NKTR (setting [6]); 140 nM on PPIL1 (setting [7]).

As for `NCCOCCNC(=O)[C@@H]1CCNC(=O)/C=C/C(=O)N2CCC[C@](Cc3ccccc3)(C2)C(=O)N[C@@H](Cc2ccc(-c3cccc(CCC(=O)O)c3)cc2)C(=O)NCc2ccccc2CC(=O)N1`, the IC50 was above 100000 nM on CypH (setting [1]); 100 nM at CypD; 13000 nM at CypG (setting [2]); 6000 nM on CypC (setting [3]); 500 nM on CypE; 500 nM at CypA. Besides, the concentration for half-maximal inhibition (IC50) on Cyp40 was 3000 nM; on PPWD1 (setting [5]), above 100000 nM; on CypB, 300 nM; at NKTR (setting [6]), above 100000 nM; on PPIL1 (setting [7]), 1100 nM.

As to `COC(=O)CCc1ccc(-c2ccc(C[C@@H]3NC(=O)[C@]4(Cc5ccccc5)CCCN(C4)C(=O)/C=C/C(=O)NCC[C@@H](C(=O)NCCOCCN)NC(=O)Cc4ccccc4CNC3=O)cc2)cc1`, the half-maximal inhibitory concentration (IC50) worked out at 50000 nM at CypH (setting [1]); 110 nM at CypD; 30000 nM on CypG (setting [2]); 1200 nM on CypC (setting [3]); 190 nM on CypE; 900 nM on CypA. For the same compound, the IC50 was 1400 nM at Cyp40; 3000 nM at PPWD1 (setting [5]); 270 nM on CypB; above 100000 nM on NKTR (setting [6]); 150 nM on PPIL1 (setting [7]).

Regarding `NCCOCCNC(=O)[C@@H]1CCNC(=O)/C=C/C(=O)N2CCC[C@](Cc3ccccc3)(C2)C(=O)N[C@@H](Cc2ccc(-c3ccc(C(=O)C(=O)O)cc3)cc2)C(=O)NCc2ccccc2CC(=O)N1`, the half-maximal inhibitory concentration (IC50) is above 50000 nM on CypH (setting [1]); 230 nM on CypD; above 50000 nM on CypG (setting [2]); 16000 nM on CypC (setting [3]); 1200 nM at CypE; 1700 nM on CypA. Also, the half-maximal inhibitory concentration (IC50) was 2300 nM against Cyp40; 30000 nM at PPWD1 (read-out: IC50 PPWD1, prolyl-isomerase inhibition, 5 nM cyclophilin); 30000 nM at PPWD1 (setting [5]); 400 nM on CypB; above 50000 nM at NKTR (setting [6]); 800 nM on PPIL1 (setting [7]).

With `NCCOCCNC(=O)[C@@H]1CCNC(=O)/C=C/C(=O)N2CCC[C@](Cc3ccccc3)(C2)C(=O)N[C@@H](Cc2ccc(-c3ccc4c(CC(=O)O)coc4c3)cc2)C(=O)NCc2ccccc2CC(=O)N1`, the 50% inhibitory concentration (IC50) on CypH (setting [1]) is above 10000 nM; at CypD it was 90 nM; on CypG (setting [2]) it was above 10000 nM; on CypC (setting [8]), 15000 nM; on CypC (setting [3]) it was 15000 nM; at CypE, 190 nM. The half-maximal inhibitory concentration (IC50) on CypA is 1900 nM; at Cyp40, 4000 nM; on PPWD1 (setting [5]), above 10000 nM; on CypB, 400 nM; at NKTR (setting [6]) it was above 10000 nM; at PPIL1 (read-out: IC50 PPIL1, prolyl-isomerase inhibition, 5 nM cyclophilin) it was 600 nM. Also, the concentration for half-maximal inhibition (IC50) on PPIL1 (setting [7]) was 600 nM.

Consider `COc1ccc(-c2ccc(C[C@@H]3NC(=O)[C@]4(Cc5ccccc5)CCCN(C4)C(=O)/C=C/C(=O)NCC[C@@H](C(=O)NCCOCCN)NC(=O)Cc4ccccc4CNC3=O)cc2)cc1`, for which the half-maximal inhibitory concentration (IC50) on CypH (read-out: IC50 CypH, prolyl-isomerase inhibition, 5 nM cyclophilin) came out at 90000 nM; at CypH (setting [1]), 90000 nM; on CypD, 120 nM; at CypG (setting [2]), 1900 nM; at CypC (setting [3]) it was 1000 nM; on CypE, 390 nM. For the same compound, the IC50 on CypA was determined as 1100 nM; on Cyp40 (setting [4]), 150 nM; on PPWD1 (setting [5]), 800 nM; at CypB it was 150 nM; at NKTR (read-out: IC50 NKTR, prolyl-isomerase inhibition, 5 nM cyclophilin) it was 5000 nM; at NKTR (setting [6]), 5000 nM. In addition, the IC50 at PPIL1 (setting [7]) was determined as 350 nM.

In the case of `NCCOCCNC(=O)[C@@H]1CCNC(=O)/C=C/C(=O)N2CCC[C@](Cc3ccccc3)(C2)C(=O)N[C@@H](Cc2ccc(-c3ccc4[nH]c(C(=O)O)cc4c3)cc2)C(=O)NCc2ccccc2CC(=O)N1`, the 50% inhibitory concentration (IC50) at CypH (setting [1]) is above 25000 nM; on CypD, 30 nM; at CypG (setting [2]), above 25000 nM; on CypC (setting [3]) it was 4000 nM; at CypE it was 100 nM; at CypA, 700 nM. Further, the IC50 on Cyp40 was 3000 nM; on PPWD1 (setting [5]) it was above 25000 nM; on CypB, 34 nM; at NKTR (setting [6]), above 25000 nM; at PPIL1 (setting [7]), 300 nM.

As for `NCCOCCNC(=O)[C@@H]1CCNC(=O)/C=C/C(=O)N2CCC[C@](Cc3ccccc3)(C2)C(=O)N[C@@H](Cc2ccc(-c3ccc(/C=C/CC(=O)O)cc3)cc2)C(=O)NCc2ccccc2CC(=O)N1`, the concentration for half-maximal inhibition (IC50) at CypH (setting [1]) was above 25000 nM; at CypD, 60 nM; at CypG (read-out: IC50 CypG, prolyl-isomerase inhibition, 5 nM cyclophilin) it was 10000 nM; at CypG (setting [2]) it was 10000 nM; on CypC (setting [8]) it was 15000 nM; on CypC (setting [3]), 15000 nM. For the same compound, the IC50 is 140 nM at CypE; 800 nM at CypA; 1600 nM against Cyp40; above 10000 nM on PPWD1 (setting [5]); 200 nM on CypB; above 10000 nM on NKTR (setting [6]). In addition, the half-inhibitory concentration (IC50) at PPIL1 (setting [7]) is 400 nM.

In the case of `CCOC(=O)CCc1ccc(-c2ccc(C[C@@H]3NC(=O)[C@]4(Cc5ccccc5)CCCN(C4)C(=O)/C=C/C(=O)NCC[C@@H](C(=O)NCCOCCN)NC(=O)Cc4ccccc4CNC3=O)cc2)cc1`, the IC50 on CypH (setting [1]) was above 50000 nM; on CypD it was 140 nM; at CypG (setting [2]), 37000 nM; on CypC (setting [3]), 2300 nM; at CypE it was 330 nM; at CypA, 1200 nM. Besides, the concentration for half-maximal inhibition (IC50) against Cyp40 is 1600 nM; on PPWD1 (setting [5]), 3700 nM; on CypB, 400 nM; at NKTR (setting [6]), above 50000 nM; on PPIL1 (setting [7]) it was 230 nM.

`Cc1cc(CCC(=O)O)ccc1-c1ccc(C[C@@H]2NC(=O)[C@]3(Cc4ccccc4)CCCN(C3)C(=O)/C=C/C(=O)NCC[C@@H](C(=O)NCCOCCN)NC(=O)Cc3ccccc3CNC2=O)cc1`: the IC50 at CypH (setting [1]) was above 50000 nM; at CypD, 270 nM; on CypG (setting [2]) it was above 50000 nM; at CypC (setting [3]), 8000 nM; at CypE, 1100 nM; at CypA, 2700 nM. For the same compound, the IC50 is 5000 nM on Cyp40 (setting [4]); above 50000 nM at PPWD1 (setting [5]); 1100 nM on CypB; above 50000 nM at NKTR (setting [6]); 3000 nM on PPIL1 (setting [7]).
